Measured values: patent US12398154B2, “Azaquinazoline pan-KRas inhibitors” (Mirati Therapeutics, Inc., priority 2020, dated 2025)
pIC50: −log10 of the molar value.

Protein sequences, listed by entry. Tags and fused reporters are not part of them. Lines headed by an entry give the natural chain unless they say otherwise; changes in a name come on top.
UniProt P01116: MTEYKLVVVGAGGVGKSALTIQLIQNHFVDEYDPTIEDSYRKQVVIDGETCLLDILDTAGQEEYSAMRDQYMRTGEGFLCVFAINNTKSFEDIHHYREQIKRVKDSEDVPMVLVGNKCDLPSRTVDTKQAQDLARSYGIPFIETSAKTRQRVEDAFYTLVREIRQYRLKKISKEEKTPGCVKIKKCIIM

How the values were obtained:
KRas G13D = molecular target: T1, KRas G13D (Homo sapiens, UniProt P01116, G13D); assay: KRas binding assay (TR-FRET displacement); conditions: TR-FRET tracer displacement, 60-minute incubation at room temperature;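 further: One-hour room temperature incubation before TR-FRET reading, IC50 from a four-parameter curve fit to percent-of-control data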
T1 construct: Biotinylated KRas (corresponding to amino acids 1-169, produced at Accelegan Inc.); biotin (biotinylated); purchased Accelegan Inc

KRas Q61H = molecular target: T2, KRas Q61H (Homo sapiens, UniProt P01116, Q61H); assay: KRas binding assay (TR-FRET displacement); conditions: TR-FRET tracer displacement, 60-minute incubation at room temperature;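 further: TR-FRET signal read after one hour at room temperature, IC50 derived by four-parameter fitting of percent-of-control values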
T2 construct: Biotinylated KRas (corresponding to amino acids 1-169, produced at Accelegan Inc.); biotin (biotinylated); purchased Accelegan Inc

| SMILES | pIC50 (KRas G13D) | pIC50 (KRas Q61H) |
| --- | --- | --- |
| CCc1c(F)ccc2cc(O)cc(-c3ncc4c(N5C[C@@H]6C[C@H](C5)[C@H](O)C6)nc(OCC5(CN6CCCC6)CC5)nc4c3F)c12 [Example 320, (1R,5R,6R)-3-(7-(8-ethyl-7-fluoro-3-hydroxynaphthalen-1-yl)-8-fluoro-2-((1-(pyrrolidin-1-ylmethyl)cyclopropyl)methoxy)pyrido[4,3-d]pyrimidin-4-yl)-3-azabicyclo[3,2,1]octan-6-ol] | ≥ 8.70 | ≥ 8.70 |
| O=C1NC(=O)C2(COCCN(c3nc(OCC45CCCN4CCC5)nc4c(F)c(-c5cccc6cccc(F)c56)ncc34)C2)N1 (stereo not shown) [Example 272, 10-(8-fluoro-7-(8-fluoronaphthalen-1-yl)-2-((hexahydro-1H-pyrrolizin-7a-yl)methoxy)pyrido[4,3-d]pyrimidin-4-yl)-7-oxa-1,3,10-triazaspiro[4.6]undecane-2,4-dione] | 6.87 | 6.84 |
| CCc1cccc2cccc(-c3ncc4c(N5CCCC6(C5)NC(=O)NC6=O)nc(OCC56CCCN5CCC6)nc4c3F)c12 (stereo not shown) [Example 293, 7-(7-(8-ethylnaphthalen-1-yl)-8-fluoro-2-((hexahydro-1H-pyrrolizin-7a-yl)methoxy)pyrido[4,3-d]pyrimidin-4-yl)-1,3,7-triazaspiro[4.5]decane-2,4-dione] | 8.15 | 8.30 |
| C#Cc1c(F)ccc2cc(O)cc(-c3ncc4c(N5C[C@@H]6C[C@H](C5)[C@H](O)C6)nc(OC[C@@]56CCCN5C[C@H](F)C6)nc4c3F)c12 [Example 388, (1R,5R,6R)-3-(7-(8-ethynyl-7-fluoro-3-hydroxynaphthalen-1-yl)-8-fluoro-2-(((2R,7aS)-2-fluorohexahydro-1II-pyrrolizin-7a-yl)methoxy)pyrido[4,3-d]pyrimidin-4-yl)-3-azabicyclo[3,2,1]octan-6-ol] | ≥ 8.70 | ≥ 8.70 |
| O=C1C[C@@]2(CCN(c3nc(OCC45CCCN4CCC5)nc4c(F)c(-c5cccc6cccc(F)c56)ncc34)C2)CN1 [Example 280, (S)-7-(8-fluoro-7-(8-fluoronaphthalen-1-yl)-2-((hexahydro-1H-pyrrolizin-7a-yl)methoxy)pyrido[4,3-d]pyrimidin-4-yl)-2,7-diazaspiro[4.4]nonan-3-one] | ≤ 4.00 | ≤ 4.00 |
| CCc1cccc2cccc(-c3ncc4c(N5CCCC(CS(N)(=O)=O)C5)nc(OCC56CCCN5CCC6)nc4c3F)c12 (stereo not shown) [Example 285, 1-(1-(7-(8-ethylnaphthalen-1-yl)-8-fluoro-2-((tetrahydro-1H-pyrrolizin-7a(5H)-yl)methoxy)pyrido[4,3-d]pyrimidin-4-yl)piperidin-3-yl)methanesulfonamide] | 6.35 | 6.53 |

The remaining lines, values ahead:

| pIC50 (KRas G13D) | pIC50 (KRas Q61H) | SMILES |
| --- | --- | --- |
| 7.21 | 7.22 | Cc1cccc2cccc(-c3ncc4c(N5CCCC6(C5)NC(=O)NC6=O)nc(OCC56CCCN5CCC6)nc4c3F)c12 (stereo not shown) [Example 448, 7-(8-fluoro-2-((hexahydro-1H-pyrrolizin-7a-yl)methoxy)-7-(8-methylnaphthalen-1-yl)pyrido[4,3-d]pyrimidin-4-yl)-1,3,7-triazaspiro[4.5]decane-2,4-dione] |
| 6.50 | 6.35 | Cc1cc2[nH]ncc2c(-c2ncc3c(N4CCCC(C)(O)C4)nc(OC[C@@]45CCCN4C[C@H](F)C5)nc3c2F)c1C (stereo partly shown) [Example 471] |
| 5.70 | 5.42 | N#Cc1cccc2cccc(-c3ncc4c(N5CCCC6(CC(=O)N6)C5)nc(OCC56CCCN5CCC6)nc4c3F)c12 (stereo not shown) [Example 451, 8-(8-fluoro-2-((hexahydro-1H-pyrrolizin-7a-yl)methoxy)-4-(2-oxo-1,6-diazaspiro[3.5]nonan-6-yl)pyrido[4,3-d]pyrimidin-7-yl)-1-naphthonitrile] |
| 6.32 | 6.41 | Cc1cccc2cccc(-c3ncc4c(N5CCCC6(CC(=O)N6)C5)nc(OCC56CCCN5CCC6)nc4c3F)c12 (stereo not shown) [Example 450, 6-(8-fluoro-2-((hexahydro-1H-pyrrolizin-7a-yl)methoxy)-7-(8-methylnaphthalen-1-yl)pyrido[4,3-d]pyrimidin-4-yl)-1,6-diazaspiro[3.5]nonan-2-one] |
| 6.30 | 6.14 | O=C1NC(=O)C2(CCCN(c3nc(OCC45CCCN4CCC5)nc4c(F)c(-c5cccc6cccc(C(F)F)c56)ncc34)C2)N1 (stereo not shown) [Example 464, 7-(7-(8-(difluoromethyl)naphthalen-1-yl)-8-fluoro-2-((hexahydro-1H-pyrrolizin-7a-yl)methoxy)pyrido[4,3-d]pyrimidin-4-yl)-1,3,7-triazaspiro[4.5]decane-2,4-dione] |
